Laboratory results: publication PMC9705858, “Anti-Endotoxin 9-Meric Peptide with Therapeutic Potential for the Treatment of Endotoxemia” (Journal of Microbiology and Biotechnology, 2020)
Converted amounts (≈) assume the structure as drawn.

What was measured:
RAW264.7 cells = experiment: Cytotoxicity, WST-8 cell proliferation assay; format: cell-based, mouse; settings: 100 μM peptide, 24 h, mean of three experiments
Protocol: (§1) The capacity of peptides in the lysis of erythrocytes was analyzed using sheep red blood cells (RBCs) as described previously. Cytotoxicity was further assessed in mouse macrophage RAW264.7 cells, which were cultured in Dulbecco’s modified Eagle medium (Thermo Fischer Scientific Inc., USA) enriched with fetal bovine serum (10%) and antibiotics (penicillin/streptomycin, 100 IU/ 100 mg/L) at 37°C in a CO2 incubator. The cytotoxic effect of Pro9-3 series peptides against RAW264.7 cells was then determined using WST-8 Cell Proliferation Assay Kit (Biomax Co. Ltd., Korea). The analysis was carried out according to our previously reported method.
Fig. 1 Cytotoxicities of peptides. (A) Dose-dependent hemolytic activities in sheep red blood cell (sRBC) caused by peptides. (B) Dose-response cytotoxicities of the Pro9-3 and its analogs against RAW264.7 cells for 24 h. Melittin was used as a positive control. The values are expressed as the mean ± SEM of three independent experiments: *p < 0.05; **p < 0.01; ***p < 0.001; ns, not significant.

sheep red blood cells = experiment: Hemolysis of sheep red blood cells; format: cell-based; settings: sheep red blood cells in vitro; 200 μM assigned when no detectable hemolysis at 100 μM
Protocol: as §1

[1] = system: Escherichia coli (KCTC 1682); format: cell-based; settings: E. coli KCTC 1682; 99% growth inhibition; 2 × 10^5 CFU/ml, 37°C, 16 h, A600
Source text: The gram-negative bacterial strains Escherichia coli (KCTC 1682) and Acinetobacter baumannii (KCCM 40203) were purchased from the Korean Collection for Type Cultures (Korea) and the Korean Culture Center of Microorganisms (Korea), respectively. The MDR gram-negative strains Escherichia coli CCARM 1229, Escherichia coli CCARM 1238, Acinetobacter baumannii CCARM 12010, and Acinetobacter baumannii CCARM 12220 were obtained from the Culture Collection of Antibiotic-Resistant Microbes at Seoul Women’s University (South Korea).
The antibacterial properties of all peptides were determined by measuring the Minimum Inhibitory Concentration (MIC) as described previously. […] Two-fold serial dilutions of respective peptides were inoculated in 96-well plates in Mueller-Hinton medium, followed by the addition of bacterial suspensions (2 × 10^5 CFU/ml) at the log growth phase. The plates were incubated at 37°C for 16 h, and absorbance was read at 600 nm using a SpectraMAX microplate reader (Molecular Devices, USA).

**Q.** With `CC[C@H](C)[C@H](NC(=O)CN)C(=O)NCC(=O)N[C@@H](C)C(=O)N[C@H](C(=O)N[C@@H](CC(C)C)C(=O)N[C@@H](CCCCN)C(=O)N[C@H](C(=O)N[C@@H](CC(C)C)C(=O)N[C@H](C(=O)N[C@H](C(=O)NCC(=O)N[C@@H](CC(C)C)C(=O)N1CCC[C@H]1C(=O)N[C@@H](C)C(=O)N[C@@H](CC(C)C)C(=O)N[C@H](C(=O)N[C@@H](CO)C(=O)N[C@@H](Cc1c[nH]c2ccccc12)C(=O)N[C@H](C(=O)N[C@@H](CCCCN)C(=O)N[C@@H](CCCNC(=N)N)C(=O)N[C@@H](CCCCN)C(=O)N[C@@H](CCCNC(=N)N)C(=O)N[C@@H](CCC(N)=O)C(=O)N[C@@H](CCC(N)=O)C(N)=O)[C@@H](C)CC)[C@@H](C)CC)[C@@H](C)O)[C@@H](C)O)C(C)C)C(C)C` [Melittin, reference compound] as the compound, how does the “Survival of RAW264.7 macrophage cells” value (RAW264.7 cells) read?
**A.** The value was 13.7%.

**Q.** What about the “HC10 (peptide concentration which induces 10% hemolysis)” value (sheep red blood cells) of the same compound?
**A.** Its value is 0.8 µM.

**Q.** And the “Minimal inhibitory concentration (MIC)” value [1]?
**A.** Its value is 8 µM (≈ 22.8 µg/mL).
